This assay concerns the target D(2) dopamine receptor (Homo sapiens, UniProt P14416).

Amino acid sequences for entries named in this document (tags omitted).
UniProt P14416, whole entry: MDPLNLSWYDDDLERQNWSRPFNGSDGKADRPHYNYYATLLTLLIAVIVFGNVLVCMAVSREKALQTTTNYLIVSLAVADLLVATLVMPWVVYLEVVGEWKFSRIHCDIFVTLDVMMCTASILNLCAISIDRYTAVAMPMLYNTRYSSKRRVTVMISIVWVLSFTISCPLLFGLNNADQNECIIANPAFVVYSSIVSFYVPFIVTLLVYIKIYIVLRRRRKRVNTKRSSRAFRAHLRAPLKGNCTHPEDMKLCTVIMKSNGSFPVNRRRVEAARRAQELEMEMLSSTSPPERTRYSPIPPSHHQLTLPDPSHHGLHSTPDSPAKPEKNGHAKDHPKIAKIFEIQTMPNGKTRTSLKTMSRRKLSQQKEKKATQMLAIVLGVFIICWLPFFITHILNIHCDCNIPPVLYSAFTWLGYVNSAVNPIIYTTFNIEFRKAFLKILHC

Each structure is given as a SMILES string. pKi: −log10 of the molar value.

The term pKi denotes the Ki on a negative log10 scale, so that one unit is a factor of ten. A higher pKi goes with a small Ki. In turn, `CN1CCc2cc(Cl)c(O)cc2[C@H]2c3ccccc3CC[C@@H]21` [ECOPIPAM] had a pKi of 5.91.

Values taken from ChEMBL document CHEMBL4665835, “Synthesis and pharmacological evaluation of 11-(1,6-dimethyl-1,2,3,6-tetrahydropyridin-4-yl)-5H-dibenzo[b,e][1,4]diazepines with clozapine-like receptor occupancy at dopamine D/D receptor” (Bioorg Med Chem Lett, 2020).
